# Tests used:
# Amino acid sequences for entries named in this document (tags omitted). A change or cut given only in a name is not applied to a line headed by its entry.
# UniProt P31749: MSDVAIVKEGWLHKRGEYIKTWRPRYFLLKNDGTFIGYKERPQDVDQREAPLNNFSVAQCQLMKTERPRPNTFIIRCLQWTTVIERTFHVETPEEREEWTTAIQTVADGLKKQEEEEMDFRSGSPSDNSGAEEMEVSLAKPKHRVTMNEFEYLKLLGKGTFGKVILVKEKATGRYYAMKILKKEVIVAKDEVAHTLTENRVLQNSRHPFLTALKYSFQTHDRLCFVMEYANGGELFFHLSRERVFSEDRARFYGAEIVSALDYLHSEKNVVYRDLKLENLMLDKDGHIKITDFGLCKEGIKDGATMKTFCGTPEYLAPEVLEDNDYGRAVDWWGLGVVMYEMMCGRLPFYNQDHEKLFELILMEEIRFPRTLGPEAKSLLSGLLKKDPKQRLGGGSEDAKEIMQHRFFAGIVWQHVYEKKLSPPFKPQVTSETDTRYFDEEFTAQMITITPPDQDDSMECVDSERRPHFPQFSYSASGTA
# UniProt Q13555: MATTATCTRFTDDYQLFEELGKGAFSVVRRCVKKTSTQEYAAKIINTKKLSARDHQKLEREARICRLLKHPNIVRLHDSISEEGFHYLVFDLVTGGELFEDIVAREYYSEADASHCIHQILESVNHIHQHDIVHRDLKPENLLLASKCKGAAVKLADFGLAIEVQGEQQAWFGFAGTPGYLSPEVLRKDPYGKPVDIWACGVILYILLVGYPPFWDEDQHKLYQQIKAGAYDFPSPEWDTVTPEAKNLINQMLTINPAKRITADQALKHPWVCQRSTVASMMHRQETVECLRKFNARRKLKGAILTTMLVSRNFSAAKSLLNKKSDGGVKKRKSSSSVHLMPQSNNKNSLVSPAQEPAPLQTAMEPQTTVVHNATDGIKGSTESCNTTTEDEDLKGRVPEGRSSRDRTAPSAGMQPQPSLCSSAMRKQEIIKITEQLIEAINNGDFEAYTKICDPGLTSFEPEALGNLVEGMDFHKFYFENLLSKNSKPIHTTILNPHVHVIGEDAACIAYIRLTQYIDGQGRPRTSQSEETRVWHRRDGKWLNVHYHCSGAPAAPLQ
# UniProt Q15759, whole entry, looked up: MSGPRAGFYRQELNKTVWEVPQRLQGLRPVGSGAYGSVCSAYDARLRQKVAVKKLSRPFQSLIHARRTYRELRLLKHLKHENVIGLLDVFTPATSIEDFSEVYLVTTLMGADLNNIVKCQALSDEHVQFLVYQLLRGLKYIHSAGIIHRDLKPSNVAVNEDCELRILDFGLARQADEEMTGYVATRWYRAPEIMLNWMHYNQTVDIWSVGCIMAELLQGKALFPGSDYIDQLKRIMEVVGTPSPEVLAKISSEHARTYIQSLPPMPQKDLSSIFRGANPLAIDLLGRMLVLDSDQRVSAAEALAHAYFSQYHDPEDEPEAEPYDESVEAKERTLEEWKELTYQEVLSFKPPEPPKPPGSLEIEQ
# UniProt P08581: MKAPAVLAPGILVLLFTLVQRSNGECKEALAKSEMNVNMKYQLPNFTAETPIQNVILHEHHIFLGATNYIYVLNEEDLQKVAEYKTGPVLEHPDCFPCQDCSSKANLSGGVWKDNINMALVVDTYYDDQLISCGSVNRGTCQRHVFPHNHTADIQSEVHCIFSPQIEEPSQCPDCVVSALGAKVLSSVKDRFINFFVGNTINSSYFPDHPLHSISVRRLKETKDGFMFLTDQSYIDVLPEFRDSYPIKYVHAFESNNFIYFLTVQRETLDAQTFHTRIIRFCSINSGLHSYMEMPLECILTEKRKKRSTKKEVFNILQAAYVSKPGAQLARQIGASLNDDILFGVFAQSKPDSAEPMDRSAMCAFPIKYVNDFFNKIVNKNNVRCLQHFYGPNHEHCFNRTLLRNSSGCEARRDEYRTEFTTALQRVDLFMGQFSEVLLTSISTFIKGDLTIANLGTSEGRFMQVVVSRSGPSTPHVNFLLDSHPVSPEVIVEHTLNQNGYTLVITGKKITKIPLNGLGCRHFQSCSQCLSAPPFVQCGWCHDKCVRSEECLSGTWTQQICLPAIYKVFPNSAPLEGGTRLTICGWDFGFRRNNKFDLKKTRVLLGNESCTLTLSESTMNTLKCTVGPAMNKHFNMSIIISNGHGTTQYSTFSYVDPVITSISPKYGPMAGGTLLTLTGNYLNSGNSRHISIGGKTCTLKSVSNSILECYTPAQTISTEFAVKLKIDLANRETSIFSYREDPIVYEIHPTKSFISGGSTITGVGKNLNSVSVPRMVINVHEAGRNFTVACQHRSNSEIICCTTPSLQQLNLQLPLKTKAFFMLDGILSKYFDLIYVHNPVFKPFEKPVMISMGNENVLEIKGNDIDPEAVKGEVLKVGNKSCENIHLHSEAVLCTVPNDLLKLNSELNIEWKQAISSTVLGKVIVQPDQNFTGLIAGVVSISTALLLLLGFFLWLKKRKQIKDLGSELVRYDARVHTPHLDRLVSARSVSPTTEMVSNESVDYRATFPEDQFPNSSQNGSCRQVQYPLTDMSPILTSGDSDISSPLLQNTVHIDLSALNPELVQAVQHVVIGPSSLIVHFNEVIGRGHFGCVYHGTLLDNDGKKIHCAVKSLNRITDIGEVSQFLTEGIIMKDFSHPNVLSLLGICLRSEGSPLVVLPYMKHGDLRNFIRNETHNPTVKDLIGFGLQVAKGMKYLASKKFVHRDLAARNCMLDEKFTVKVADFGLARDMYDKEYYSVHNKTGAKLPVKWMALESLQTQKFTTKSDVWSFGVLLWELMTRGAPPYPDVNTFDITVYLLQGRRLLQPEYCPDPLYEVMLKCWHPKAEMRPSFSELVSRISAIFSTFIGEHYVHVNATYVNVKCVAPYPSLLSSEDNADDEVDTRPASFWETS
# UniProt Q9P289: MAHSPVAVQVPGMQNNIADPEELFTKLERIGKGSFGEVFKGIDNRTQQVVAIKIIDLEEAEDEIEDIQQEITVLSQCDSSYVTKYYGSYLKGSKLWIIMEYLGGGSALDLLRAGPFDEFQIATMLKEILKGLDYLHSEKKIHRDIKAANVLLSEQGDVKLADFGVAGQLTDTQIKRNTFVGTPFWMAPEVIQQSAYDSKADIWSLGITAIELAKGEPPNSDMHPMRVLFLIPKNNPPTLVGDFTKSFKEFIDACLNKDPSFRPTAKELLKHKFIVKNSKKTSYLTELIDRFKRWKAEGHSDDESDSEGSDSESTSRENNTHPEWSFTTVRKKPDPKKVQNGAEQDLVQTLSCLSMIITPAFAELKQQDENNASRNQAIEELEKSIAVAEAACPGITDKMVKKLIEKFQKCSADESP
# UniProt Q9HC98: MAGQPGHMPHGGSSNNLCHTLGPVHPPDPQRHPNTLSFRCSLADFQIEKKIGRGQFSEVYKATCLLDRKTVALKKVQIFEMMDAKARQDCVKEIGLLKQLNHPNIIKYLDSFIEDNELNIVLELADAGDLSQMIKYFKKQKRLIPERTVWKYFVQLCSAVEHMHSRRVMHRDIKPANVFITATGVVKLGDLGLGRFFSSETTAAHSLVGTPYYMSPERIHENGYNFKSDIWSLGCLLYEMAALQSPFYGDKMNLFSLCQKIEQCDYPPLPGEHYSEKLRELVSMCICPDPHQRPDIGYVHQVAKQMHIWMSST
# UniProt Q16620, whole entry, looked up: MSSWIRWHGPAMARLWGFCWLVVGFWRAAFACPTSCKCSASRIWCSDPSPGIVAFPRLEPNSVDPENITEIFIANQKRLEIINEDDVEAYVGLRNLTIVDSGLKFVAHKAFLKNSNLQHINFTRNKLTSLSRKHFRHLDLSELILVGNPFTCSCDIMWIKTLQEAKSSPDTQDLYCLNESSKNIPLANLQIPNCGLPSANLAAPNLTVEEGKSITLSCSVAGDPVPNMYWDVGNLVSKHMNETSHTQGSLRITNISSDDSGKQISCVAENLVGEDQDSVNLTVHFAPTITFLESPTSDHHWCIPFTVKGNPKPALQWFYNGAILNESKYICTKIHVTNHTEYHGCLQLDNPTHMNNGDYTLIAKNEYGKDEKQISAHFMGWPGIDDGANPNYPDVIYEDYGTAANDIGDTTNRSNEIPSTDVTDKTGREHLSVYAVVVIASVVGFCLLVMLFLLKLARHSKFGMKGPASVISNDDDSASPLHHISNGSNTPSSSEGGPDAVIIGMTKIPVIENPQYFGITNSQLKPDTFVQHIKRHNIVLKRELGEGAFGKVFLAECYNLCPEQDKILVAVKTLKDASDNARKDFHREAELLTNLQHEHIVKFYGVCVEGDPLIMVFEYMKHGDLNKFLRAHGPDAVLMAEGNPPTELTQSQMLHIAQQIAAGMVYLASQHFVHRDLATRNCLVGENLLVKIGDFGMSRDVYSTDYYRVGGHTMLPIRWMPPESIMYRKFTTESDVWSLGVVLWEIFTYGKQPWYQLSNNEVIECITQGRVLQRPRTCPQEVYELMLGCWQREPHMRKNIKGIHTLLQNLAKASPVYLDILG
# UniProt P16234: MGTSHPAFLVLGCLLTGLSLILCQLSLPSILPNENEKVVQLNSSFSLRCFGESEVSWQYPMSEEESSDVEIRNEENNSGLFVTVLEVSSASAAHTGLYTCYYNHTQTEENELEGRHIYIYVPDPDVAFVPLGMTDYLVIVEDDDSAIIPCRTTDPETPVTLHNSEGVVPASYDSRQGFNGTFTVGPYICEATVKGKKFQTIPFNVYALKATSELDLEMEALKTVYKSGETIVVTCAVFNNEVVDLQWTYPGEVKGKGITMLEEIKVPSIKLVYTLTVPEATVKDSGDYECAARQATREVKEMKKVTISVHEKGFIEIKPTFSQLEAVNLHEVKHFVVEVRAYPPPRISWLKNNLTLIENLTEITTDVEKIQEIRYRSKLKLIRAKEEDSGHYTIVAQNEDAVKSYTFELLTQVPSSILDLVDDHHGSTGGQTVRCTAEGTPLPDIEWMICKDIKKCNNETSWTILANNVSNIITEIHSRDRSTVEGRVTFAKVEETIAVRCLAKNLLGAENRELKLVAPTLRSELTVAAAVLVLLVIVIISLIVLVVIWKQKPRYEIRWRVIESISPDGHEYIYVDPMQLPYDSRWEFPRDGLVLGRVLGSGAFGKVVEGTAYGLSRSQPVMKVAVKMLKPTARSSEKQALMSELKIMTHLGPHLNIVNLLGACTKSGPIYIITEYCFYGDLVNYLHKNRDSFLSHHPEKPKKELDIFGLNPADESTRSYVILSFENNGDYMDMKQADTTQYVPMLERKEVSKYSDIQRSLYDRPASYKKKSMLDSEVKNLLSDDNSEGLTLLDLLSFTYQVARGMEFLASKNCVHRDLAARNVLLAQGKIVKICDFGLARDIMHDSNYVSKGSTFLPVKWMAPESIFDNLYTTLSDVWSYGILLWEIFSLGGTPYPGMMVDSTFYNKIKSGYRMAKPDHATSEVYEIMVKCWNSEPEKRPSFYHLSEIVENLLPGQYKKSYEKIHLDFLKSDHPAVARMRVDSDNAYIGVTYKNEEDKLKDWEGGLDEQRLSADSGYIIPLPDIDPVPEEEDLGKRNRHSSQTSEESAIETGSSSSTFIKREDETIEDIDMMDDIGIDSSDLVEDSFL
# UniProt Q05397, whole entry, looked up: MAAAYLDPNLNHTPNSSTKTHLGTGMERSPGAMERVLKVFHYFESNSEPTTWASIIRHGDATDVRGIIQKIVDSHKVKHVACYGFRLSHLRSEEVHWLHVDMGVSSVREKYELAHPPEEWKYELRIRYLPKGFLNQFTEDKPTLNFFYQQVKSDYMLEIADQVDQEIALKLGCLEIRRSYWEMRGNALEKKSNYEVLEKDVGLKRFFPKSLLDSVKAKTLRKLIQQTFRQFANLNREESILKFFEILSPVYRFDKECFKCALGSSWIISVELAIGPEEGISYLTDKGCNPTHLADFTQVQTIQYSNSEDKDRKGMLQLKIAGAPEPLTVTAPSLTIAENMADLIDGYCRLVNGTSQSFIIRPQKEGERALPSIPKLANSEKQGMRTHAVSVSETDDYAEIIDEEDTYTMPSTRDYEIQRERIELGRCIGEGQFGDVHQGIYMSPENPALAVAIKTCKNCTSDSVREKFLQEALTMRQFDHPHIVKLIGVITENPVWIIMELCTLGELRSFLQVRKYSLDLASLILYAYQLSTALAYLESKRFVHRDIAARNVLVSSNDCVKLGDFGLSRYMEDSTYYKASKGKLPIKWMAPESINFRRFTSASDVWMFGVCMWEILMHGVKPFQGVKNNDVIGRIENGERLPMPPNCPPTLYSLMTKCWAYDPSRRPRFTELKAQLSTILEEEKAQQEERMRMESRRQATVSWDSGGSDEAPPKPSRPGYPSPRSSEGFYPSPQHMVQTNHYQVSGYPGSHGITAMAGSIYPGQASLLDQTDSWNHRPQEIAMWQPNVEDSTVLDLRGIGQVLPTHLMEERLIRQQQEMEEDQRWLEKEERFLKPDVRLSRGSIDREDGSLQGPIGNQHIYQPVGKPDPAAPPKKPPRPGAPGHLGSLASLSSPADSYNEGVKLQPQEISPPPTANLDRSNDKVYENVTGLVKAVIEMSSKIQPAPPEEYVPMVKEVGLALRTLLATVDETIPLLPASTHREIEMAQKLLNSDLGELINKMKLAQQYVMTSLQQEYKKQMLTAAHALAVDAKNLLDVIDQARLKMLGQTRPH
# Assay in all cases: radiometric filter-binding kinase assay, Kinase HotSpot
# Settings in all cases: compound 0.5 µM; ATP 10 µM
# AKT1 (human) = AKT1 (human) (UniProt P31749)
# AKT3 (human) = AKT3 (human) (UniProt Q9Y243)
# BRAF (human) = BRAF (human) (UniProt P15056)
# CAMK1 (human) = CAMK1 (human) (UniProt Q14012)
# CAMK2G (human) = CAMK2G (human) (UniProt Q13555)
# CSNK1G3 (human) = CSNK1G3 (human) (UniProt Q9Y6M4)
# DAPK3 (human) = DAPK3 (human) (UniProt O43293)
# DDR2 (human) = DDR2 (human) (UniProt Q16832)
# DSTYK (human) = DSTYK (human) (UniProt Q6XUX3)
# EPHA3 (human) = EPHA3 (human) (UniProt P29320)
# EPHB2 (human) = EPHB2 (human) (UniProt P29323)
# FGFR3 (human) = FGFR3 (human) (UniProt P22607)
# FLT1 (human) = FLT1 (human) (UniProt P17948)
# GRK4 (human) = GRK4 (human) (UniProt P32298)
# GSG2 (human) = GSG2 (human) (UniProt Q8TF76)
# GSK3B (human) = GSK3B (human) (UniProt P49841)
# HCK (human) = HCK (human) (UniProt P08631)
# LRRK2 (human) = LRRK2 (human) (UniProt Q5S007)
# MAP3K10 (human) = MAP3K10 (human) (UniProt Q02779)
# MAP4K4 (human) = MAP4K4 (human) (UniProt O95819)
# MAPK11 (human) = MAPK11 (human) (UniProt Q15759)
# MARK1 (human) = MARK1 (human) (UniProt Q9P0L2)
# MATK (human) = MATK (human) (UniProt P42679)
# MET (human) = MET (human) (UniProt P08581)
# MST4 (human) = MST4 (human) (UniProt Q9P289)
# NEK6 (human) = NEK6 (human) (UniProt Q9HC98)
# NLK (human) = NLK (human) (UniProt Q9UBE8)
# NTRK2 (human) = NTRK2 (human) (UniProt Q16620)
# OXSR1 (human) = OXSR1 (human) (UniProt O95747)
# PAK3 (human) = PAK3 (human) (UniProt O75914)
# PAK7 (human) = PAK7 (human) (UniProt Q9P286)
# PDGFRA (human) = PDGFRA (human) (UniProt P16234)
# PKN1 (human) = PKN1 (human) (UniProt Q16512)
# PLK2 (human) = PLK2 (human) (UniProt Q9NYY3)
# PRKCG (human) = PRKCG (human) (UniProt P05129)
# PTK2 (human) = PTK2 (human) (UniProt Q05397)
# RAF1 (human) = RAF1 (human) (UniProt P04049)
# SIK2 (human) = SIK2 (human) (UniProt Q9H0K1)
# SRPK2 (human) = SRPK2 (human) (UniProt P78362)
# TAOK1 (human) = TAOK1 (human) (UniProt Q7L7X3)
# TEK (human) = TEK (human) (UniProt Q02763)
# ULK2 (human) = ULK2 (human) (UniProt Q8IYT8)
compound,measurement,setting,value
COc1cc(OC)c(/C=C2\C(=O)Nc3ccccc32)c(OC)c1,residual activity,AKT1 (human),94.9%
same,residual activity,AKT3 (human),98.1%
same,residual activity,BRAF (human),98.3%
same,residual activity,CAMK1 (human),92.6%
same,residual activity,CAMK2G (human),86.8%
same,residual activity,CSNK1G3 (human),101%
same,residual activity,DAPK3 (human),98.1%
same,residual activity,DDR2 (human),98.3%
same,residual activity,DSTYK (human),97.7%
same,residual activity,EPHA3 (human),93.9%
same,residual activity,EPHB2 (human),86.2%
same,residual activity,FGFR3 (human),92.4%
same,residual activity,FLT1 (human),105%
same,residual activity,GRK4 (human),98.2%
same,residual activity,GSG2 (human),85.5%
same,residual activity,GSK3B (human),94.3%
same,residual activity,HCK (human),106%
same,residual activity,LRRK2 (human),92.2%
same,residual activity,MAP3K10 (human),100%
same,residual activity,MAP4K4 (human),66.1%
same,residual activity,MAPK11 (human),98.4%
same,residual activity,MARK1 (human),94.3%
same,residual activity,MATK (human),98.4%
same,residual activity,MET (human),150%
same,residual activity,MST4 (human),81.7%
same,residual activity,NEK6 (human),99.3%
same,residual activity,NLK (human),102%
same,residual activity,NTRK2 (human),105%
same,residual activity,OXSR1 (human),107%
same,residual activity,PAK3 (human),101%
same,residual activity,PAK7 (human),95.8%
same,residual activity,PDGFRA (human),95.2%
same,residual activity,PKN1 (human),101%
same,residual activity,PLK2 (human),110%
same,residual activity,PRKCG (human),95.4%
same,residual activity,PTK2 (human),102%
same,residual activity,RAF1 (human),95.4%
same,residual activity,SIK2 (human),106%
same,residual activity,SRPK2 (human),97.6%
same,residual activity,TAOK1 (human),102%
same,residual activity,TEK (human),94.2%
same,residual activity,ULK2 (human),103%

# From the kinase profiling compilation of Christmann-Franck et al. (2016)
